Laboratory results: article PMC8954831, “Design, Synthesis, Molecular Docking, and Biological Evaluation of Pyrazole Hybrid Chalcone Conjugates as Potential Anticancer Agents and Tubulin Polymerization Inhibitors” (Pharmaceuticals, 2022)

The chains behind the UniProt entries cited, without tags or fusion partners.
UniProt P02550, whole entry: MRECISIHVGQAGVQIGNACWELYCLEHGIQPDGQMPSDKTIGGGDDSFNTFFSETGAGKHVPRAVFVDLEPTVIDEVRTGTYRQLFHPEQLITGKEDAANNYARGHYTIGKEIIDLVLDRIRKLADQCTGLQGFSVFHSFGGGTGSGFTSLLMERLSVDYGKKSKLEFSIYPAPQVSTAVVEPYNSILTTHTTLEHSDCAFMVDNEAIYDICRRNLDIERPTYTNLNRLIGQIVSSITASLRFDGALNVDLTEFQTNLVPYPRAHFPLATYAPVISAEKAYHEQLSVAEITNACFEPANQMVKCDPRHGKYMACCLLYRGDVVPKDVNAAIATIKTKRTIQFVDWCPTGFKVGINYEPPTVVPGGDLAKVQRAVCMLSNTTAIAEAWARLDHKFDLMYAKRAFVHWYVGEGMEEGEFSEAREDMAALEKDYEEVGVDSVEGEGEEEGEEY
UniProt P02554, whole entry: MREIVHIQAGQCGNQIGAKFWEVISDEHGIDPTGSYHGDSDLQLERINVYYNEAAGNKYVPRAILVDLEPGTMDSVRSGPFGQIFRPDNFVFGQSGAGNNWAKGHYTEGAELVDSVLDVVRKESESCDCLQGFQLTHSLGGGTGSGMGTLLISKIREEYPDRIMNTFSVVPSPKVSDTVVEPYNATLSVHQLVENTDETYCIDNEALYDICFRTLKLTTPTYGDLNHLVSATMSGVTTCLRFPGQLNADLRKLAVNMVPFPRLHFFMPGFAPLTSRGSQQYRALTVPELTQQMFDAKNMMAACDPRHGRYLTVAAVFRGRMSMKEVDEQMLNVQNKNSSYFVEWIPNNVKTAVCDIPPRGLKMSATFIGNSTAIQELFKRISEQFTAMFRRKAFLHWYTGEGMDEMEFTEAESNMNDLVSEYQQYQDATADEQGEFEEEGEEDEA

Molecular target: tubulin (purified brain tubulin) (Sus scrofa, UniProt P02550+P02554)
Assay: In vitro tubulin polymerization assay (fluorescence)
Assay type: biochemical
Details: read-out: % Inhibition of Tubulin Polymerization
Protocol: The α and β tubulin subunits are recognized by heterodimers and self-assemble into a stable microtubule in a time-dependent manner. Assessment of the inhibitory effect of new pyrazolic chalcone conjugates on tubulin polymerization was also carried out. The progression of tubulin polymerization was thus examined by monitoring the increase in the fluorescence intensity at 450 nm (excitation wavelength of 360 nm) in a 384-plate for 1 h at 37 °C with and without the conjugate at 10 µM concentration. CA-4 (6 µM) and Vincristine (3 µM) were used as the positive control, whereas paclitaxel (3 µM) was used as the negative control.
Tubulin polymerization is a dynamic process by enhancement of fluorescence intensity due to the combination of a fluorescent reporter into the microtubules as polymerization occurs. Tubulin polymerization was performed by using a purified brain tubulin polymerization kit purchased from Cytoskeleton (BK110P, Denver, CO, USA). The tubulin polymerization assay was monitored by the increase in fluorescence over a 60 min period at 37 °C, with excitation at 360 nm and emission at 450 nm. The final buffer concentration for tubulin polymerization contained 80 mM PIPES, pH 6.9; 2 mM MgCl2; 0.5 mM EGTA; […]; and 15% glycerol. Firstly, 5 µL of the test compounds (final concentration of 10 µM) was added and then warmed to 37 °C for 1 min. […]

COc1ccc(/C=C\c2cc(OC)c(OC)c(OC)c2)cc1O [Combretastatin A-4, reference compound]
inhibition at 6 µM: 72.3%
